Measured values published in ChEMBL document CHEMBL1132115, “Discovery of the first potent and selective small molecule opioid receptor-like (ORL1) antagonist: 1-[(3R,4R)-1-cyclooctylmethyl-3- hydroxymethyl-4-piperidyl]-3-ethyl-1, 3-dihydro-2H-benzimidazol-2-one (J-113397)” (1999).

Experiments:
[1] = target: Mu-type opioid receptor (Homo sapiens, UniProt P35372); assay: Binding affinity in CHO cells stably expressing cloned human Opioid receptor mu 1 by displacing diprenorphine
[2] = target: Delta-type opioid receptor (Homo sapiens, UniProt P41143); assay: Binding affinity in CHO cells stably expressing cloned human Opioid receptor delta 1 by displacing radioligand [3H][D-Ala2,D-Leu5]enkephalin
[3] = target: Kappa-type opioid receptor (Homo sapiens, UniProt P41145); assay: Binding affinity in CHO cells stably expressing cloned human Opioid receptor kappa 1 by displacing radioligand [3H]U-69593
[4] = target: T1, Nociceptin receptor (Homo sapiens, UniProt P41146); assay: Agonistic activity against nociceptin produced GTPgammaS binding to Opioid receptor like 1 expressed in CHO cells
[5] = target: T1, Nociceptin receptor; assay: Antagonistic activity against nociceptin produced [35S]GTP-gamma-S, binding to Opioid receptor like 1 expressed in CHO cells
[6] = target: T1, Nociceptin receptor; assay: Binding affinity in CHO cells stably expressing cloned human Opioid receptor like 1 by displacing radioligand [125I]Tyr14-nociceptin

Structure (SMILES) | IC50 [1] | IC50 [2] | IC50 [3] | EC50 [4] | IC50 [5] | IC50 [6]
CCn1c(=O)n([C@@H]2CCN(CC3CCCCCCC3)C[C@H]2CO)c2ccccc21 | 2200 nM | > 10 µM | 1400 nM | > 10 µM | 5.6 nM | 2.3 nM
CCn1c(=O)n([C@H]2CCN(CC3CCCCCCC3)C[C@@H]2CO)c2ccccc21 | 3300 nM | > 10 µM | 2600 nM | > 10 µM | > 10000 nM | 820 nM
